# Reported melting point values for industrial, environmental and drug-like chemicals

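These are experimental values that the OPERA curators gathered from public databases to train and test their QSAR models. The files give a single number for a compound and property, which may rest on several reports. Conditions of the individual experiments are not part of the data. A value may pool stereoisomers or salt forms, and the file does not say which form was measured. Unmarked limits or estimates from the upstream databases cannot be ruled out.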

The melting point is given in degrees Celsius.

Listed for O=c1ccn(-c2ccc(Cl)cc2)[nH]1 [1-(4-Chlorophenyl)-3-hydroxypyrazole]: MP 190 °C. For OCc1cnn(Cc2ccccc2)c1 [(1-Benzyl-1H-pyrazol-4-yl)methanol] the data give MP 56 °C. NC(=O)c1ccc(=O)[nH]c1 [6-Hydroxynicotinamide] is reported with MP 317 °C. O=S(=O)(Cl)c1ccc(C2CCCCC2)cc1 [4-cyclohexylbenzenesulfonyl chloride] has MP 50 °C. For O=C(O)c1cccc(S(=O)(=O)N2CCCCC2)c1 [3-(Piperidine-1-sulfonyl)benzoic acid] the data give MP 179 °C.

CC(C)(C)c1ccccc1OCC(=O)O [(2-tert-butylphenoxy)acetic acid] is reported with MP 146 °C. For CN(C)c1ccc(N2C(=O)CSC2=S)cc1 the data give MP 139 °C. Listed for CC(C)(C)OC(=O)NC1CCN(CC(=O)O)CC1 [{4-[(tert-Butoxycarbonyl)amino]piperidin-1-yl}acetic acid]: MP 205 °C. The entry for Cc1csc(Nc2ccccc2)n1 [4-Methyl-N-phenyl-1,3-thiazol-2-amine] lists MP 75 °C. The entry for NC(=O)c1ccc(N)cc1Cl [4-amino-2-chlorobenzamide] lists MP 164 °C.

Listed for CC(=O)c1ccc(-c2ccc(C=O)o2)cc1 [5-(4-Acetylphenyl)furan-2-carbaldehyde]: MP 134 °C. O=Cc1ccc(-c2ccccc2[N+](=O)[O-])s1 [5-(2-Nitrophenyl)thiophene-2-carbaldehyde] is reported with MP 113 °C. CCOc1ccc2ccccc2c1CO [(2-ethoxy-1-naphthyl)methanol] is reported with MP 50 °C. For Cn1cc(C#N)cn1 [1-Methyl-1H-pyrazole-4-carbonitrile] the data give MP 60 °C. The entry for Cc1cc(C(=O)CCl)c(C)n1-c1cccc(C(F)(F)F)c1 lists MP 97 °C.

O=C(O)CCC1CCNCC1 [3-(Piperidin-4-yl)propanoic acid] has MP 276 °C. Nc1ncnc2sc3c(c12)CCCC3 [5,6,7,8-Tetrahydro[1]benzothieno[2,3-d]pyrimidin-4-amine] is reported with MP 240 °C. Cc1cc(C=O)c(C)n1-c1cccc(C(F)(F)F)c1 is reported with MP 104 °C. For O=S1(=O)C=CCC1 [Thiophene, 2,3-dihydro-, 1,1-dioxide] the data give MP 63 °C. Nc1ccc(N2CCCC2)nc1 [6-pyrrolidin-1-ylpyridin-3-amine] is reported with MP 84 °C.

The entry for COc1ccc(NCCC(=O)O)cc1 [3-(4-Methoxy-phenylamino)-propionic acid] lists MP 83 °C. The entry for NNC(=O)Cc1cccs1 [2-(2-thienyl)acetohydrazide] lists MP 65 °C. Listed for CC(=O)N1Cc2ccccc2CC1C(=O)O (stereo not drawn) [2-acetyl-1,2,3,4-tetrahydroisoquinoline-3-carboxylic acid]: MP 174 °C. The entry for Cc1cccc(C(N)=O)c1N [2-Amino-3-methylbenzamide] lists MP 146 °C. Listed for CCn1c(-c2ccc(Cl)cc2)n[nH]c1=S: MP 212 °C.

O=C(O)CCc1nc2ccccc2s1 [3-(1,3-benzothiazol-2-yl)propanoic acid] has MP 98 °C. Listed for COc1ccc2c(c1)OCC(C=O)=C2 [2H-1-Benzopyran-3-carboxaldehyde, 7-methoxy-]: MP 83 °C. The entry for O=C1CC(C(=O)O)c2ccccc2N1 (stereo not drawn) [2-oxo-1,2,3,4-tetrahydroquinoline-4-carboxylic acid] lists MP 212 °C. Listed for CCN(CC)S(=O)(=O)c1ccc(NCCO)c(N)c1: MP 158 °C. For O=C([O-])CSSCC(=O)[O-].[NH4+].[NH4+] [Acetic acid, 2,2'-dithiobis-, ammonium salt (1:2)] the data give MP 170 °C.

The entry for COc1ccc([N+](=O)[O-])cc1S(=O)(=O)Cl [2-Methoxy-5-nitrobenzene-1-sulfonyl chloride] lists MP 86 °C. The entry for Cc1ccc(NCCC#N)cc1 [3-p-Tolylamino-propionitrile] lists MP 111 °C. NNc1ccc(-c2ccccc2)nn1 [3-hydrazino-6-phenylpyridazine] has MP 145 °C. Listed for O=C(O)CCC(=O)c1ccc(I)cc1 [4-(4-Iodo-phenyl)-4-oxo-butyric acid]: MP 176 °C. CCc1ccccc1C(=O)N(NC(=O)c1ccccc1)C(C)(C)C [N'-Benzoyl-N-tert-butyl-2-ethylbenzohydrazide] has MP 178 °C.

Nc1nc(-c2cc3ccccc3o2)cs1 [4-(1-benzofuran-2-yl)-1,3-thiazol-2-amine] is reported with MP 244 °C. For Cc1sc(N)nc1-c1cccc(Cl)c1 [4-(3-chlorophenyl)-5-methyl-1,3-thiazol-2-amine] the data give MP 92 °C. Listed for Cn1c(C2CC2)n[nH]c1=S [5-cyclopropyl-4-methyl-4H-1,2,4-triazole-3-thiol]: MP 181 °C. The entry for Cn1c(-c2ccccc2Cl)n[nH]c1=S [5-(2-chlorophenyl)-4-methyl-4H-1,2,4-triazole-3-thiol] lists MP 145 °C. Cc1cc(C)n2c(C(=O)O)nnc2n1 has MP 179 °C.

The entry for O=C(O)Cn1c(=O)[nH]c2ccccc2c1=O [(2,4-dioxo-1,4-dihydroquinazolin-3(2H)-yl)acetic acid] lists MP 296 °C. CCCCCCCCCC[N+](C)(C)[O-] [N,N-Dimethyldecylamine oxide] has MP 130 °C. Listed for CC(=O)Oc1ccc(-c2ccc(C(=O)O)cc2)cc1 [4'-Acetoxy-biphenyl-4-carboxylic acid]: MP 276 °C. CC(C)(C)c1n[nH]c(=S)n1N [4-amino-5-tert-butyl-4H-1,2,4-triazole-3-thiol] has MP 187 °C. Listed for CC(=O)CC(=O)Nc1cccc(Cl)c1 [Butanamide, N-(3-chlorophenyl)-3-oxo-]: MP 106 °C.

The entry for Nc1n[nH]c(-c2cccs2)n1 [5-(Thiophen-2-yl)-1H-1,2,4-triazol-3-amine] lists MP 203 °C. The entry for CN1CCN(CCC=C2c3ccccc3Sc3ccc(S(=O)(=O)N(C)C)cc32)CC1 [Thiothixene] lists MP 116 °C. COCc1ccc(C(=O)O)cc1 [4-(methoxymethyl)benzoic acid] has MP 90 °C. Cc1cccc(Nc2n[nH]c(=S)s2)c1 [5-m-Tolylamino-[1,3,4]thiadiazole-2-thiol] is reported with MP 197 °C. For CC(=O)NCc1ccc(C(=O)O)cc1 [4-(acetamidomethyl)benzoic acid] the data give MP 189 °C.

From the experimental data distributed with OPERA 2.9.